In paper doi:10.1101/2021.05.05.442822:
Like-named read-outs stand apart in the source and are kept apart here.

How the values were obtained:
Assay in all cases: FP
[1] = biological target: unmethylated (H3K9me0) mononucleosome (UniProt P84233)
[2] = biological target: H3K9me1 monomethylated mononucleosome (UniProt P84233); conditions: complex
[3] = biological target: H3K9me2 dimethylated mononucleosome (UniProt P84233); conditions: complex

G9aS-GLP
Kd [1]: > 70 µM

GLP ANK-SET homodimer (from UniProt Q9H9B1)
Kd [2]: 5 µM

G9a-GLP ANK-SET heterodimer, tagless (from UniProt Q96KQ7)
Kd ([1]; complex): 6.5 µM
Kd [2]: 2.26 µM
Kd [3]: 4.76 µM

G9a ANK-SET homodimer (from UniProt Q96KQ7)
Kd ([1]; complex): 7.42 µM
Kd [3]: 18.4 µM
